Source: the NIST ThermoML archive (doi:10.1016/j.jct.2011.04.018)
Numbers after ± are expanded uncertainties.

Assay: activity coefficient (dimensionless); of the first substance listed, at infinite dilution; xn = mol fraction of the nth substance listed
Conditions: 101 kPa, Liquid, Chromatography, x1 = 0

CCCCOCCCC [dibutyl ether] + O=S(=O)([N-]S(=O)(=O)C(F)(F)F)C(F)(F)F.OCCC[n+]1ccccc1
Conditions	activity coefficient
308.15 K	26.1 ± 1.8
318.15 K	24.8 ± 1.7
328.15 K	23.6 ± 1.6
338.15 K	22.5 ± 1.5
348.15 K	21.6 ± 1.5
358.15 K	20.8 ± 1.4
368.15 K	20 ± 1.4
